By UniProt entry, the sequences of proteins in these tests, tags left out. Where a name states a change or a piece, a line headed by the entry shows the natural chain unless it says otherwise.
UniProt Q9Y2J4: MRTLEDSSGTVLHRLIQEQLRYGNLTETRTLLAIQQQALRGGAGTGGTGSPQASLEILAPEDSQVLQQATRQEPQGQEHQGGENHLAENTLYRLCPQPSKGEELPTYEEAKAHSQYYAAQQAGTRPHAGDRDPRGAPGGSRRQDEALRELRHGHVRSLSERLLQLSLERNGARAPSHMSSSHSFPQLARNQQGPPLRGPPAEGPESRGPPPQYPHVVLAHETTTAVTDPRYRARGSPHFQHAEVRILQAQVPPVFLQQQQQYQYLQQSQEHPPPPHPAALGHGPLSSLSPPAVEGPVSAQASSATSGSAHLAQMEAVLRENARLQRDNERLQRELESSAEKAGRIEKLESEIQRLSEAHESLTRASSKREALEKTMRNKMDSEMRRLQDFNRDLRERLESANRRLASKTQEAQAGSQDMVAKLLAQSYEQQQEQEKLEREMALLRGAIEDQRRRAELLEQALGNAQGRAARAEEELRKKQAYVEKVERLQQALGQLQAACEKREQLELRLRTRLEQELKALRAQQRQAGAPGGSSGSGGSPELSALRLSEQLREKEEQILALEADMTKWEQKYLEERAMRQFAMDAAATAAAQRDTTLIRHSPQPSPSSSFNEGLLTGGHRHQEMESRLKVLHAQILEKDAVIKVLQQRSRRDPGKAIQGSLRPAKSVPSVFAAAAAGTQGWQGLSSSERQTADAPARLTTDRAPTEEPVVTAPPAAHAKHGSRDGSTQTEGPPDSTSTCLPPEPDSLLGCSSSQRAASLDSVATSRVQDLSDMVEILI
UniProt Q4VCS5: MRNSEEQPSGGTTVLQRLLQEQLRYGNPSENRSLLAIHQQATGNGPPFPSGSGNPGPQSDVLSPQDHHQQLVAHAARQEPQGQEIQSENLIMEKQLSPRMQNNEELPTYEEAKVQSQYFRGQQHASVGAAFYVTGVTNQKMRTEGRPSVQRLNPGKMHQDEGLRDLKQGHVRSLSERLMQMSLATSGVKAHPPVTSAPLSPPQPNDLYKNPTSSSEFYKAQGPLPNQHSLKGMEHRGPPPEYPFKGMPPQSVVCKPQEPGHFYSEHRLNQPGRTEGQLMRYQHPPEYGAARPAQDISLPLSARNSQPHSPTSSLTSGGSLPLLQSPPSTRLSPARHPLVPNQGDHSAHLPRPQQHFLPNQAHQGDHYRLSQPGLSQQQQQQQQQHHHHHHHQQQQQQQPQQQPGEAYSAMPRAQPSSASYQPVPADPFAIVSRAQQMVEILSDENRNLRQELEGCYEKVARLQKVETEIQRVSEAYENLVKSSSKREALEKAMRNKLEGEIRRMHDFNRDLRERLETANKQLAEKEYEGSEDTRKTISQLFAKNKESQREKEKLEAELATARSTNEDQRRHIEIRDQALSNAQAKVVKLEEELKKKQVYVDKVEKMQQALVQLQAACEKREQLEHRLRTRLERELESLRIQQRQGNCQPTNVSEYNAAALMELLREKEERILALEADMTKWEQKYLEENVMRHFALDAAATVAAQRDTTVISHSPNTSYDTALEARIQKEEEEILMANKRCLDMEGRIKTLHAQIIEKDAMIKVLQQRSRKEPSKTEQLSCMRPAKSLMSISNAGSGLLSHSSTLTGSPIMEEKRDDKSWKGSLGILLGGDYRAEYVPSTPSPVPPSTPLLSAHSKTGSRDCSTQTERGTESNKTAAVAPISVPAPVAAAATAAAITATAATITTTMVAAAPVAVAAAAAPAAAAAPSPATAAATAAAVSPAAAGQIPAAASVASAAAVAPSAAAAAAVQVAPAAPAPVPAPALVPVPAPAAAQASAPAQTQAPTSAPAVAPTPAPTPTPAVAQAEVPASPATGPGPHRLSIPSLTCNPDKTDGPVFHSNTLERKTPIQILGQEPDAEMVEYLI

In paper PMC10090947:

What was measured:
[1] = molecular target: AMOTL2 (UniProt Q9Y2J4); test: AP-MS (MS1 intensity); details: parent: est. 34; read off a plot
[2] = molecular target: AMOT (UniProt Q4VCS5); test: AP-MS (MS1 intensity); details: parent: est. 33; read off a plot

Substance: Strep‐HA YAP1 (wild type) S367A
- response (log2(Intensity)) [1]: 33
- response (log2(Intensity)) [2]: 33
